Only a part is listed here, and it is no random draw. Results filed as inconclusive are left out. Activity calls are given as the source filed them. Calls follow the shape of the dose curve; as a rule, active = well fitted activation curve with a large enough effect; inconclusive = small, poorly fitted or top-dose-only effect; inactive = no such curve, though single readings can be large or run the other way.

The nature of the assay: qHTS Assay for Agonists of the Thyroid Stimulating Hormone Receptor: Activators of Intracellular cAMP Concentrations in Parental HEK 293. Also: % of control where 0% means no effect; nearly all actives have a fitted effect of over 55% in size. Particulars: parental HEK293 CNG cAMP sensor, membrane potential fluorescence; at 57.1 µM (top of the series). A general note: qHTS replaces the single test concentration by a dilution series.
Turning to `O=[N+]([O-])C(Cl)(Cl)Cl`, the activation was inactive: 29.9%.

(Values after PubChem BioAssay AID938 (National Center for Advancing Translational Sciences (NCATS), 2007).)
